Assay results: ChEMBL document CHEMBL1131670, “N-hydroxyurea and hydroxamic acid inhibitors of cyclooxygenase and 5-lipoxygenase” (Bioorg Med Chem Lett, 1999)

Molecular target: T1, Cyclooxygenase (Rattus norvegicus, UniProt P35355+Q63921)
T1 sequence (P35355 whole entry): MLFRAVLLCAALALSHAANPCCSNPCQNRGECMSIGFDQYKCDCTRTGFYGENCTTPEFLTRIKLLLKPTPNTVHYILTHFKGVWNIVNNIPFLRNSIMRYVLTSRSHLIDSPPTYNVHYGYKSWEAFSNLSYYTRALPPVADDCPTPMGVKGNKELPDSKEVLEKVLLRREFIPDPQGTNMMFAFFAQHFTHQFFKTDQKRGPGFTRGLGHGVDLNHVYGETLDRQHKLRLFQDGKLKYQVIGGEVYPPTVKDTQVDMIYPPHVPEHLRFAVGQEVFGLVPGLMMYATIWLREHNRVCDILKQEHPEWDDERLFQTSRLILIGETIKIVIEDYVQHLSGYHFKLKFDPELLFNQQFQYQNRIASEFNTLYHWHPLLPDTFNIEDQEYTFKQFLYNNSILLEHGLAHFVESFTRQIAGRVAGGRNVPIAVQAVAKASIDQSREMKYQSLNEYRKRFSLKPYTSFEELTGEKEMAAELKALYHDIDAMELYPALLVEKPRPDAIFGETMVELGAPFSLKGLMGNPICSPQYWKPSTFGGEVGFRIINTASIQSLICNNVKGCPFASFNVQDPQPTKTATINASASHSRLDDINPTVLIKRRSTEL
T1 sequence (Q63921 whole entry): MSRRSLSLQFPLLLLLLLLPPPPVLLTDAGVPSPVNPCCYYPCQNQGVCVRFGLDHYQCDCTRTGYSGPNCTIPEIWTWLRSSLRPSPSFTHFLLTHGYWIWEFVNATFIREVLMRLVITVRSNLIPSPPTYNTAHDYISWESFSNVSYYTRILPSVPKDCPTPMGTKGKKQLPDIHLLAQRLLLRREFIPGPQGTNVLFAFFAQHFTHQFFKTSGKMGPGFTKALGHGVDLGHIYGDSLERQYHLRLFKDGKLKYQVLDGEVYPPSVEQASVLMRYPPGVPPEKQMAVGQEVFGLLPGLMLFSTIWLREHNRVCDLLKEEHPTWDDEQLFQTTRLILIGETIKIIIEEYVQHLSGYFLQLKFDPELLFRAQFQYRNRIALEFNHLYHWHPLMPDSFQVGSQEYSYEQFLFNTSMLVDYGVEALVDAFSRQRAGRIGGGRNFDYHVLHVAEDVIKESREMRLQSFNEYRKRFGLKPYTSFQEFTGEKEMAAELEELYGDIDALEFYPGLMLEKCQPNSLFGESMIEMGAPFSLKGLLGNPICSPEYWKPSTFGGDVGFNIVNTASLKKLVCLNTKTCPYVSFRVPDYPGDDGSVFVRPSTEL
Assay: Inhibitory activity against cyclooxygenase (COX) in intact rat […] leukemia cells (RBL-1)
Type: cell-based

COc1ccc(-n2nc(C#CC(C)N(O)C(=O)N3CCCCC3)cc2-c2ccc(Cl)cc2)cc1 (configuration not stated) showed an IC50 of 690 nM.

COc1ccc(-n2nc(C#CCN(O)C(=O)c3ccccc3)cc2-c2ccc(C)cc2)cc1 showed an IC50 of 930 nM.
